According to paper PMC7723054:
Some of the results follow.

B1: hsa-mir-15a (structured_RNA)
RNA: GGGACGAAGGUCGACCUGAUCAACGUCAGGUGUACGAAGUUUCAGCUUUGUGGAUUUUGAAAAGGUGCAGGGCUGAAGCUUCGUGCAC
B2: hsa-mir-3667 (structured_RNA)
RNA: GGGACAUACGGAAUUGCGCGUGGAGUCGGGUGUACGAAGUUUCAGCAGGUUCUGCUGGCUGAGAACCUGCUGAAGCUUCGUGCAC
B3: hsa-mir-548ap (structured_RNA)
RNA: GGGAAACAAUCUGACGGUCUGCUGAAUUGGUGUACGAAGUUUCAGCCUUUGUCAUUAAAACCAAUAACAAAAGCUGAAGCUUCGUGCAC
B4: hsa-mir-3649 (structured_RNA)
RNA: GGGACAUGGGCUCGUACAGCGAACUUCAGGUGUACGAAGUUUCAGCACCUGUGUGUGCCCAAGUGUUUCUAGCAAACACAGGGGCUGAAGCUUCGUGCAC
B5: hsa-mir-3609 (structured_RNA)
RNA: GGGAAAUACUUCAACGUUGCGGCCAGUCGGUGUACGAAGUUUCAGCUCCUUUUCUCUACCUUGUAGAGAAGCAGCUGAAGCUUCGUGCAC
B6: hsa-mir-3197 (structured_RNA)
RNA: GGGAAAUUAGCACAGGUCACUUAAGGCUGGUGUACGAAGUUUCAGCGGCGCGCGAGGCUCCAGGCUCCGCUGAAGCUUCGUGCAC
B7: hsa-mir-3913-1 (structured_RNA)
RNA: GGGAAAUAGGCGACGAACACCUGAAUACGGUGUACGAAGUUUCAGCGUCUGCCAAAACCUUGGCAGACGCUGAAGCUUCGUGCAC
B8: hsa-mir-6766 (structured_RNA)
RNA: GGGAUCGAAUGGCAGAAGAUCACCUCCGGGUGUACGAAGUUUCAGCAUUGAGAGUUCCUUCUCCUGCUCCUGAUGCUGAAGCUUCGUGCAC
B9: hsa-mir-422a (structured_RNA)
RNA: GGGACGACGCUCUGAGACCCAACUUGUAGGUGUACGAAGUUUCAGCAGGCCUGAGUCUCUCUGCUGCAGAUGGGCUCGCUGAAGCUUCGUGCAC
B10: hsa-mir-197 (structured_RNA)
RNA: GGGAAAGCCGCUAAGGGUAUUCAGAUAGGGUGUACGAAGUUUCAGCUGGGAGGUAAGAGCUCUUCACCCUUCAGCUGAAGCUUCGUGCAC
B11: hsa-mir-4535 (structured_RNA)
RNA: GGGACUCCAUCCCAUCAGGCAUUAUCCGGGUGUACGAAGUUUCAGCUCACAGUUGGUUUCUGACACGUGGGCUGAAGCUUCGUGCAC
B12: hsa-mir-6811 (structured_RNA)
RNA: GGGAAAGCUACGCGCUCCGUUCUCGAUGGGUGUACGAAGUUUCAGCCACUCAGGCAGUGCCAUGAGCGCUGAAGCUUCGUGCAC
B13: hsa-mir-8052 (structured_RNA)
RNA: GGGAGCAAGGCAGUUAUAUAAUCCCUGUGGUGUACGAAGUUUCAGCGAGCUCAGGAGCUCGCUGAAGCUUCGUGCAC
B14: hsa-mir-6074 (structured_RNA)
RNA: GGGCAAACGAAAUGUCGUCCCAGGCAGGGGUGUACGAAGUUUCAGCUUGCUCUUUGGUGGAGAUAGCUGAAGCUUCGUGCAC
B15: hsa-mir-4279 (structured_RNA)
RNA: GGGAACGGGACUCGUCACGCAUCAAUGAGGUGUACGAAGUUUCAGCGCAGAUUCUCUCUCUCGCUGAAGCUUCGUGCAC
B16: hsa-mir-127 (structured_RNA)
RNA: GGGAAACGGCGUGUAUAUCGUCAAUUCCGGUGUACGAAGUUUCAGCCUGAUUCAGAAAGAUCAUCGGGCUGAAGCUUCGUGCAC
B17: hsa-mir-1283-2 (structured_RNA)
RNA: GGGACGUAAUCGCAAGCCAAGCCUUAGAGGUGUACGAAGUUUCAGCUUCUGUUGUCUGAAAGAAAAGAAGCUGAAGCUUCGUGCAC
B18: hsa-mir-128-1 (structured_RNA)
RNA: GGGAAAUAGAGAGCUGUUCCAACGAGAUGGUGUACGAAGUUUCAGCCUGAGAGGUUUACAUUUCUCGCUGAAGCUUCGUGCAC
B19: hsa-mir-3666 (structured_RNA)
RNA: GGGACAAUGAGUCGGUUCUUGCGCGAGUGGUGUACGAAGUUUCAGCCGACUCCGUGGCAGAGUUCAGCUGAAGCUUCGUGCAC
B20: hsa-mir-5008 (structured_RNA)
RNA: GGGACAAAAUAUCGCAGCGUGGCAACCUGGUGUACGAAGUUUCAGCCAGUGGUGCCAUCUCCCCUGGCUGAAGCUUCGUGCAC
B21: hsa-mir-4419b (structured_RNA)
RNA: GGGAACUUGCGGUCGUACACUAUAAGUCGGUGUACGAAGUUUCAGCUCCCAGCCACUCUGGAGGGCUGAAGCUUCGUGCAC
B22: hsa-mir-4315-1_4315-2 (structured_RNA)
RNA: GGGAUUAAGACGGUGGUCUAACCCGCGUGGUGUACGAAGUUUCAGCGGACCCUCUCUCUACCUCUGCUGAAGCUUCGUGCAC
B23: hsa-mir-3650 (structured_RNA)
RNA: GGGAUUAUGAGGAGUCACUGCGCAUAUCGGUGUACGAAGUUUCAGCGUCCUGACUGCGUGCCAGGGGCGCUGAAGCUUCGUGCAC
B24: hsa-mir-4647 (structured_RNA)
RNA: GGGACCUGACGAUCUAGAUGGAGUGCUCGGUGUACGAAGUUUCAGCGGAAAGGGGAUGCAGAGCCCUGCCGCUGAAGCUUCGUGCAC
B25: hsa-mir-7113 (structured_RNA)
RNA: GGGAAAAUGGUUCGCGUGAACACAAAGUGGUGUACGAAGUUUCAGCGAGGCCUCUUGCCAUGGCCUCCGCUGAAGCUUCGUGCAC
B26: hsa-mir-377 (structured_RNA)
RNA: GGGAAGGAGAGAGCCGUUUAGCCAAAUAGGUGUACGAAGUUUCAGCGAAUUCGCUUUAUUUAUGUUGAAUCGCUGAAGCUUCGUGCAC

Key:
Assay in all cases: FOREST: bead pull-down of RNA structure library v1, barcode microarray; U1A/LIN28A: 20 mM HEPES pH 7.5, 80 mM KCl, 20 mM NaCl, 10% glycerol, 2 mM DTT, 0.1 ug/uL BSA, 4 C; BG4/CIRBP/DHX36: 10 mM Tris-HCl pH 7.5, 100 mM KCl (or LiCl),; high values mean tight binding
[1] = molecular target: T1, LIN28A (human?, UniProt Q9H9Z2 1-209)
T1 sequence: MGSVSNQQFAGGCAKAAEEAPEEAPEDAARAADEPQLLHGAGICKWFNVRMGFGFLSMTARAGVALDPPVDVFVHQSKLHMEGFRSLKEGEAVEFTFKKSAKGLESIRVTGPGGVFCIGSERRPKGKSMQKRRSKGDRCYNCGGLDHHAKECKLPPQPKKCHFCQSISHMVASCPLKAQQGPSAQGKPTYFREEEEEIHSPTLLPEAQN

[2] = molecular target: T2, CIRBP (Homo sapiens, UniProt Q14011 1-172)
T2 sequence: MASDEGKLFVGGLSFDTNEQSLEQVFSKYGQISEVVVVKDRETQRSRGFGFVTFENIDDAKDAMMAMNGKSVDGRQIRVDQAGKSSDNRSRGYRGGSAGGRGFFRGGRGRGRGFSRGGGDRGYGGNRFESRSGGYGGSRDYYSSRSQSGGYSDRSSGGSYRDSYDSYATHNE

[3] = molecular target: T3, DHX36 (Homo sapiens, UniProt Q9H2U1 1-1008)
T3 sequence: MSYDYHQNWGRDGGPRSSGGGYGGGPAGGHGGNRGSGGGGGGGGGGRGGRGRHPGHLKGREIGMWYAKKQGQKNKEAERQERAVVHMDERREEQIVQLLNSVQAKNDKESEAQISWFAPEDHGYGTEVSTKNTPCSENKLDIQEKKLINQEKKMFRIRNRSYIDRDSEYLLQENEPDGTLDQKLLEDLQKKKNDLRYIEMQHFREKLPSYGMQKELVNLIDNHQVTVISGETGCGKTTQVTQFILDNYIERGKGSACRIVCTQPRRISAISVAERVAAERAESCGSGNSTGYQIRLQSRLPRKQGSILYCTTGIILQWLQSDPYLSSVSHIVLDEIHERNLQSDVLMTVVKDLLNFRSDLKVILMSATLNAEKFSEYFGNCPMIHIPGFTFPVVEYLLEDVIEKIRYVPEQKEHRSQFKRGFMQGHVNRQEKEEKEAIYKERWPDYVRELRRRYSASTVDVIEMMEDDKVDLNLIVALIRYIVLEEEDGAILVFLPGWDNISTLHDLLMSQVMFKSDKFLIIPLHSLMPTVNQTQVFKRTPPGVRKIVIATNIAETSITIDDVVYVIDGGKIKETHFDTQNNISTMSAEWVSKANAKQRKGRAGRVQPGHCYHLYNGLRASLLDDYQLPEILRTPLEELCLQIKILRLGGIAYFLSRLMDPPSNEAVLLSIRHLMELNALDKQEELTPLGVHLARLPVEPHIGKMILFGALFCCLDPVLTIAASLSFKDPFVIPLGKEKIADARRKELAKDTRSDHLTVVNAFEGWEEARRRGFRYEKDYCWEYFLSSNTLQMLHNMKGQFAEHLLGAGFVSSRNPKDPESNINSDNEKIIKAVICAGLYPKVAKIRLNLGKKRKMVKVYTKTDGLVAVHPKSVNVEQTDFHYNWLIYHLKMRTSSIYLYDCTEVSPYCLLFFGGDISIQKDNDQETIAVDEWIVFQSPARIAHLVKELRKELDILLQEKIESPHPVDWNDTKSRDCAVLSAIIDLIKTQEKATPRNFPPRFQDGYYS

Binder	binding signal [1] [z-score]	binding signal [2] [z-score]	binding signal [3] [z-score]
B1	-0.858	-0.971	-0.872
B2	-0.86	-0.467	-0.4
B3	-0.862	-1.22	-0.707
B4	-0.863	-1	-0.713
B5	-0.867	-0.899	-0.297
B6	-0.869	-0.341	-0.826
B7	-0.877	0.032	-0.225
B8	-0.883	-0.199	-0.406
B9	-0.89	-0.682	-0.0444
B10	-0.893	0.709	-0.227
B11	-0.906	-0.135	-1.31
B12	-0.909	-0.0692	-0.00164
B13	-0.912	-0.906	-0.771
B14	-0.913	-0.138	0.583
B15	-0.917	0.303	-0.122
B16	-0.924	0.949	-0.299
B17	-0.925	-1.64	-0.772
B18	-0.93	-1.94	-0.901
B19	-0.931	0.282	-0.673
B20	-0.935	-1.7	-1.47
B21	-0.94	-0.373	-0.402
B22	-0.943	-1.32	-0.736
B23	-0.945	-0.0256	0.859
B24	-0.954	0.104	-0.668
B25	-0.956	-0.302	-0.731
B26	-0.959	0.825	0.674
